Earlier results as cited in US10195284B2, “Compositions and methods for controlled localized delivery of bone forming therapeutic agents” (University of Rochester, priority 2013, dated 2019).

Conditions: mice, 20 mg/kg subcutaneous, cited from earlier work

C[C@@H]1CN(Cc2ccc(F)cc2)CCN1C(=O)COc1ccc(Cl)cc1NC(N)=O [BX471]
peak serum concentration (30 minutes following injection): 9 µM
reduction of serum concentration after 2 hours: more than 20 fold
serum concentration after 2 hours: 400 nM
